target: T1, Recombinant human HSP90α (Homo sapiens, UniProt P07900); test: Radioligand filter binding test: competitive inhibition of [3H]17AAG binding to HSP90; details: [3H]17AAG 0.08 μM, HSP90 1.5 μg/assay, 22° C., 30 min
T1 construct: host or cells: E. coli
Procedure: In the specific case, a radioligand filter binding test is used. The radioligand used here is tritium-labelled 17-allylaminogeldanamycin, [3H]17AAG, This filter binding test allows a targeted search for inhibitors which interfere with the ATP binding site.
Recombinant human HSP90α (E. coli expressed, 95% purity);
HEPES filter buffer (50 mM HEPES, pH 7.0, 5 mM MgCl2, BSA 0.01%) Multiscreen FB (1 μm) filter plate (Millipore, MAFBNOB 50).
The 96-well microtitre filter plates are firstly irrigated and coated with 0.1% of polyethylenimine.
The test is carried out under the following conditions:
Reaction temperature 22° C.
Reaction time: 30 min., shaking at 800 rpm
50 mM HEPES HCl, pH 7.0, 5 mM MgCl2, 0.01% (w/v) of BSA
At the end of the reaction, the supernatant in the filter plate is removed by suction with the aid of a vacuum manifold (Multiscreen Separation System, Millipore), and the filter is washed twice.
The filter plates are then measured in a beta counter (Microbeta, Wallac) with scintillator (Microscint 20, Packard).
“% of control” is determined from the “counts per minutes” values, and the IC-50 value of a compound is calculated therefrom.

**Q.** How did the IC50 turn out when `Cc1cccc(Cc2n[nH]c3cc(O)c(C(=O)N(C)c4ccc5c(c4)OCCO5)cc23)c1` [Compound A143, 5-[N-(2,3-Dihydrobenzo-1,4-dioxin-6-yl)-N-methylaminocarbonyl]-3-(3-methylbenzyl)-6-hydroxy-1H-indazole] was run?
**A.** Its IC50 is 10 to 1000 nM.

**Q.** `CN(C(=O)c1cc2c(CC3CCCC3)n[nH]c2cc1O)c1ccc(N2CCOCC2)cc1` [Compound A262, 5-[N-(4-Morpholin-4-ylphenyl)-N-methylaminocarbonyl]-3-cyclopentylmethyl-6-hydroxy-1H-indazole] was tested. Which IC50 did it give?
**A.** The IC50 was 10 to 1000 nM.

**Q.** With `CCCc1n[nH]c2cc(O)c(C(=O)N(C)c3ccc(N4CCOCC4)cc3)cc12` [Compound A176, 5-[N-(4-Morpholin-4-ylphenyl)-N-methylaminocarbonyl]-3-propyl-6-hydroxy-1H-indazole] as the molecule, how does the IC50 read?
**A.** Its IC50 is 10 to 1000 nM.

**Q.** For `Cc1cccc(Cc2n[nH]c3cc(O)c(C(=O)N(C)c4ccc(Br)cc4)cc23)c1` [Compound A192, 5-[N-(4-Bromophenyl)-N-methylaminocarbonyl]-3-(3-methylbenzyl)-6-hydroxy-1H-indazole], which IC50 is on record?
**A.** Its IC50 is 10 to 1000 nM.

**Q.** How did the IC50 turn out when `Cc1cccc(Cc2n[nH]c3cc(O)c(C(=O)N(C)c4ccc(CNS(C)(=O)=O)cc4)cc23)c1` [Compound A134, 5-[N-(4-Methylsulfonylaminomethylphenyl)-N-methylaminocarbonyl]-3-(3-methylbenzyl)-6-hydroxy-1H-indazole] was run?
**A.** The IC50 was 10 to 1000 nM.

**Q.** How did the IC50 turn out when `CCCCc1n[nH]c2cc(O)c(C(=O)N(C)c3ccc(N4CCOCC4)cc3)cc12` [Compound A173, 5-[N-(4-Morpholin-4-ylphenyl)-N-methylaminocarbonyl]-3-butyl-6-hydroxy-1H-indazole] was run?
**A.** Its IC50 is 10 to 1000 nM.

**Q.** For `CC(=O)c1ccc(N(C)C(=O)c2cc3c(Cc4cccc(C)c4)n[nH]c3cc2O)cc1` [Compound A148, 5-[N-(4-Acetylphenyl)-N-methylaminocarbonyl]-3-(3-methylbenzyl)-6-hydroxy-1H-indazole], which IC50 is on record?
**A.** The IC50 was 10 to 1000 nM.

**Q.** `COc1ccc(N(C)C(=O)c2cc3c(Cc4cccc(C)c4)n[nH]c3cc2O)cc1Cl` [Compound A147, 5-[N-(3-Chloro-4-methoxyphenyl)-N-methylaminocarbonyl]-3-(3-methylbenzyl)-6-hydroxy-1H-indazole] was tested. Which IC50 did it give?
**A.** Its IC50 is 10 to 1000 nM.

**Q.** How did the IC50 turn out when `COc1ccc(N(C)C(=O)c2cc3c(Cc4cccc(C)c4)n[nH]c3cc2O)cc1` [Compound A130, 5-[N-(4-Methoxyphenyl)-N-methylaminocarbonyl]-3-(3-methylbenzyl)-6-hydroxy-1H-indazole] was run?
**A.** The IC50 was 10 to 1000 nM.

Reference: US8722903B2, “Indazole derivatives for the treatment of HSP9O-induced diseases” (Merck Patent GmbH, priority 2006, dated 2014)
